Earlier results on 1 compound are cited in US20050220715A1, “Methods and compositions for improving drug safety” (Lotus Pharmaceutical Co., Ltd., priority 2004, published 2005).

Structures are written as SMILES.

The target of the series is T1, progesterone receptors (Homo sapiens, UniProt P06401).
T1 sequence (P06401 1-933): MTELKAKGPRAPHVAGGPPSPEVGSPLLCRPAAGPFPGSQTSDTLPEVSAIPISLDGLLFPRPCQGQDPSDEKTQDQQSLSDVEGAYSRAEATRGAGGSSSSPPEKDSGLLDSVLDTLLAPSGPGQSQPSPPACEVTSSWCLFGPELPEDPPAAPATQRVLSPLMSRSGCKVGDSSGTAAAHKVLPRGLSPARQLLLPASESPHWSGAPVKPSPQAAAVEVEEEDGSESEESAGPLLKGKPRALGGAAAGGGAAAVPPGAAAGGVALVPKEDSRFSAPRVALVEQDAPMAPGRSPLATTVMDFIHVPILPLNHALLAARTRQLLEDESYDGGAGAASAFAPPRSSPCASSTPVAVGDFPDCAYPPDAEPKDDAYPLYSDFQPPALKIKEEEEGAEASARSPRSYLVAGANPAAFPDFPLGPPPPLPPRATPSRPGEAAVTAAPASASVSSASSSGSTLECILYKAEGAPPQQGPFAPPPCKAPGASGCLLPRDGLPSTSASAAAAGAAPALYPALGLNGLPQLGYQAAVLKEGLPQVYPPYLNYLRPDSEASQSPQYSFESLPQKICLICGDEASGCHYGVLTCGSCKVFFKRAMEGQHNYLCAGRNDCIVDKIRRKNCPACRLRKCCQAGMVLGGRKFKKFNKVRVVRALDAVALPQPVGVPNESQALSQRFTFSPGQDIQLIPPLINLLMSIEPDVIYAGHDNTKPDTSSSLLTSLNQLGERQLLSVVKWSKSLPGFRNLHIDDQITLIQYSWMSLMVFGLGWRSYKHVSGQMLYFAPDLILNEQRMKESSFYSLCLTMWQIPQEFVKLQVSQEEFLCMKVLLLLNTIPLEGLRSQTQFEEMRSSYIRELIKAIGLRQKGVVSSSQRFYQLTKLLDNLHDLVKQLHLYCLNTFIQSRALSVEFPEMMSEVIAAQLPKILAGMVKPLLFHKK
The settings on record: cited from earlier work.

For the compound `CC#C[C@]1(O)CC[C@H]2[C@@H]3CCC4=CC(=O)CCC4=C3[C@@H](c3ccc(N(C)C)cc3)C[C@@]21C` [Mifepristone, 17β-hydroxy-11β-(4-dimethylaminophenyl)-17α-(1-propynyl)-estra-4,9-dien-3-one], the “affinity for the progesterone receptors” value is “high affinity”.
